How the values were obtained:
carboxypeptidase Y and B = assay: Metabolic stability in carboxypeptidase mix (ESMS, selected ion monitoring); settings: carboxypeptidase Y and B in 50 mM ammoniumacetate pH 4.5; 37° C., 24 h in degradation solution; decrease in SIM signal vs zero-sample
[1] = test system: trypsin, chymotrypsin and elastase; assay: Metabolic stability in pancreatic enzyme mix (ESMS, selected ion monitoring); settings: chymotrypsin and elastase in 100 mM ammoniumbicarbonate pH 8.0, 37° C., 24 h in degradation solution, decrease in SIM signal vs zero-sample

For `CSCC[C@H](NC(=O)[C@H](CC(C)C)NC(=O)[C@H](Cc1c[nH]c2ccccc12)NC(=O)[C@H](CCC(N)=O)NC(=O)[C@@H](NC(=O)[C@H](Cc1ccccc1)NC(=O)[C@H](CC(=O)O)NC(=O)[C@H](CCC(N)=O)NC(=O)[C@H](C)NC(=O)[C@H](CCCN=C(N)N)NC(=O)[C@H](CCCN=C(N)N)NC(=O)[C@H](CO)NC(=O)[C@H](CC(=O)O)NC(=O)[C@H](CC(C)C)NC(=O)[C@H](Cc1ccc(O)cc1)NC(=O)[C@H](CCCCN)NC(=O)[C@H](CO)NC(=O)[C@H](Cc1ccc(O)cc1)NC(=O)[C@H](CC(=O)O)NC(=O)[C@H](CO)NC(=O)[C@@H](NC(=O)[C@H](Cc1ccccc1)NC(=O)[C@@H](NC(=O)CNC(=O)[C@H](CCC(N)=O)NC(=O)[C@H](CO)NC(=O)[C@@H](N)Cc1c[nH]cn1)[C@@H](C)O)[C@@H](C)O)C(C)C)C(=O)N[C@@H](CC(N)=O)C(=O)N[C@H](C(=O)O)[C@@H](C)O` [Glucagon], the Carboxypeptidase mix (carboxypeptidase Y and B) was “− (Unstable (more than 20% decrease in SIM signal after 24 h in degradation solution))” and the Pan. enzyme mix [1] was “− (Unstable (more than 20% decrease in SIM signal after 24 h in degradation solution))”.
